Experimental data reported in patent US7229782B1, “Antibodies specific to multiple beta blockers and methods for their use” (LabOne, Inc., priority 2004, dated 2007).

System: antibody of the present invention
Assay: Interference from other drugs, homogeneous enzyme immunoassay
Type: binding, rabbit
Conditions: chemical at 10.0 μg/ml urine; cutoff 5.0 μg Atenolol per ml of urine; tested three times
Description: Samples were checked for turbidity and growth. A homogeneous enzyme immunoassay was carried out on an Olympus AU-5200 analyzer using the following assay parameters:
Reagent 1 is comprised of a titer of 1–500 dilution of an antibody of the present invention, 11.25 mM NAD+, 11.25 mM G6P, 0.1% w/v sodium azide and 100 mM Tris.
Reagent 2 is comprised of a titer of 1–2000 dilution of a G6PDH-beta blocker conjugate, 0.1% w/v sodium azide, and 50 mM Tris.
A homogenous calibrator containing sodium azide was used to calibrate the analyzer prior to each run.
The analytical cutoff for the test was set at 5.0 μg Atenolol per ml of urine. The result was scored as a positive if the signal strength was greater than that produced by 5.0 μg Atenolol per ml of urine.
Interference from other drugs was tested using fifty-five (55) frequently used chemicals and medicines, at concentrations of 10.0 μg/ml urine.
The samples were tested three times, following the procedures used in Example 3. All 55 samples produced a negative test result. Thus, the immunoassay of the present invention is specific to beta blockers.

## CN1CC[C@]23c4c5ccc(O)c4O[C@H]2C(=O)CC[C@H]3[C@H]1C5 [Hydromorphone]
  Beta-Blocker Pos./Neg.: Neg. (scored as a positive if the signal strength was greater than that produced by 5.0 μg Atenolol per ml of urine)
